Measured values: patent publication US20110046385A1, “Polymorphs Of Prostaglandin Agonists And Methods For Making The Same” (priority 2007, published 2011)

Amino acid sequences for entries named in this document (tags omitted). A change or cut given only in a name is not applied to a line headed by its entry.
UniProt P43116: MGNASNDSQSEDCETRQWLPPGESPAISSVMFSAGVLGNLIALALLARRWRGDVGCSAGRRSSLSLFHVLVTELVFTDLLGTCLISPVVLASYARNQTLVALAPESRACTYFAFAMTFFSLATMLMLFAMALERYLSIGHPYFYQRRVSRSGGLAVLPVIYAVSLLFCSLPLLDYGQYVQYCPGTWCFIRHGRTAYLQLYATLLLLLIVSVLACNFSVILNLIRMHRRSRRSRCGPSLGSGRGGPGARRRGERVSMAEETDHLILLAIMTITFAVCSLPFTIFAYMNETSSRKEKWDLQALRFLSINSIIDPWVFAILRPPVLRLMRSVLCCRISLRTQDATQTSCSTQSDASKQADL

Target: T1, recombinant human EP2 receptor (Homo sapiens, UniProt P43116)
T1 construct: cDNAs representing the complete open reading frames of the human EP2 and EP4 receptors; expressed in transfected cells
Assay: Scatchard analysis of specific [3H]PGE2 binding in 293-S line overexpressing EP2
Conditions: read-out: Kd for PGE2 (EP2); 293-S/EP2 line, approximately 338,400 receptors per cell

Kd: 0.012 µM
Compound: CCCCC[C@H](O)/C=C/[C@H]1[C@H](O)CC(=O)[C@@H]1C/C=C\CCCC(=O)O [PGE2, prostaglandin E2]
